Measured values published in paper PMC11754111 (2025).

B1: H3K4me3Q5ser histone H3 tail peptide (ITC) (peptide)
chain: ARTKQTARKSTGGKA
modifications: trimethyl-lysine at 4; serotonylated glutamine at 5; C-terminal amide (general statement of the peptide synthesis)
B2: H3K4me3Q5his histone H3 tail peptide (ITC) (peptide)
chain: ARTKQTARKSTGGKA
modifications: trimethyl-lysine at 4; histaminylated glutamine at 5; C-terminal amide (general statement of the peptide synthesis)
B3: H3K4me3 histone H3 tail peptide (ITC) (peptide)
chain: ARTKQTARKSTGGKA
modifications: trimethyl-lysine at 4; C-terminal amide (general statement of the peptide synthesis)

Target: T1, CHD1 chromodomain
T1 chain: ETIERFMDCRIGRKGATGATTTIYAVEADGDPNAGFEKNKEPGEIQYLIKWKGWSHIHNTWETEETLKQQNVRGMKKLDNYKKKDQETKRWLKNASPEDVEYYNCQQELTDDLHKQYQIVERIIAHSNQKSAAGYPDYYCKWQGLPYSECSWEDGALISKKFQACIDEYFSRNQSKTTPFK
Assay: ITC

B1 and B2 are within 1.5-fold of each other in Kd: 5.41 µM for the first, 6.21 µM for the second.

B3 was tested, and the Kd was 12.2 µM.
